This note sets out measurements from patent US9221746B2, “Homo- and hetero-polyamino-acid derivatives of fullerene C60, method for producing same, and pharmaceutical compositions based on said derivatives” (priority 2011, dated 2015).

The series is described as follows: Solubility of the product.

As for “N-Fullerene γ-Aminobutyric Acid with β-Alanine of the Formula C60(H3){NH(CH2)3COO^−}3(NH3^+CH2—CH2—COOH)3 [Example 2]”, the solubility result is, setting by setting: (CH3CN:H2O (1:1)) “incompletely soluble”; (DMF-H2O) “incompletely soluble”; (dimethyl sulfoxide/water (1:200)) “soluble”.
